The target of the assay is Histone-lysine N-methyltransferase EZH2 (Homo sapiens, UniProt Q15910). To be noted: WSUDLCL2, dose 60.0 µM, time 2.0 hrs.

By UniProt entry, the sequences of proteins in these tests, tags left out.
UniProt Q15910, whole entry, looked up: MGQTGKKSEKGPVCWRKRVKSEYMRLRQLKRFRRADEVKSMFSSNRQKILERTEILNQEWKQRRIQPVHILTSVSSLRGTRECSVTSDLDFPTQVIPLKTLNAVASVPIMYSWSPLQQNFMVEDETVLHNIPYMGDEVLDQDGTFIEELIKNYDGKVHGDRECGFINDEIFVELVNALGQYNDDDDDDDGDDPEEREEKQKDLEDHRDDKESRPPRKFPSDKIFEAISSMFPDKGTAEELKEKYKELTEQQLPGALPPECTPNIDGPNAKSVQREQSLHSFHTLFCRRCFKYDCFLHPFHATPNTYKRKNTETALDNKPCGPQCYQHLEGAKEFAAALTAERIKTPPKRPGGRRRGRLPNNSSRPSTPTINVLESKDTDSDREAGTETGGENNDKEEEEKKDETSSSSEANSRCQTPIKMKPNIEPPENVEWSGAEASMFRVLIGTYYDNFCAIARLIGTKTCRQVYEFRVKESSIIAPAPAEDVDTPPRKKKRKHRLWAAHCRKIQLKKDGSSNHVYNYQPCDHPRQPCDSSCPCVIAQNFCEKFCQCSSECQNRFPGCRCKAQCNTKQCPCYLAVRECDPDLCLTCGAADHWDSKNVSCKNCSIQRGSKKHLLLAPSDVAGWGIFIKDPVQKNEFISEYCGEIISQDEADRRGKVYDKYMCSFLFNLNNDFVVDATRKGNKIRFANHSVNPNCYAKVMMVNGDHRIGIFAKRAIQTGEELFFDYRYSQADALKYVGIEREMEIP

This passage reports deltaT results from ChEMBL document CHEMBL5038571, “Design and Synthesis of EZH2-Based PROTACs to Degrade the PRC2 Complex for Targeting the Noncatalytic Activity of EZH2” (J Med Chem, 2021).

Take `CCN(c1cc(-c2ccc(CN3CCN(CCCCCCCOc4cccc5c4C(=O)N(C4CCC(=O)NC4=O)C5=O)CC3)cc2)cc(C(=O)NCc2c(C)cc(C)[nH]c2=O)c1C)C1CCOCC1` (stereo unspecified): the deltaT stood at 5 °C.
